Data: patent publication US11267861B2, “Peptide-oligourea foldamer compounds and methods of their use” (UREKA SARL, priority 2016, dated 2022)

Tests used:
[1] = system: chymotrypsin; assay: Enzymatic degradation by chymotrypsin; type: in vitro ADME; details: compared to native peptide GLP-1 (SEQ ID NO: 1)
Protocol: Enzymatic Degradation—Chymotrypsin and Trypsin. Stock solutions of the compounds were prepared at a concentration of 400 μM in a solution of 50 mM HEPES buffer, 50 mM NaCl, 0.05% Tween-80, pH 8.0. Stock solution of the chymotrypsin or trypsin was prepared at a concentration of 250 μg/mL in water. Stability of compounds to chymotrypsin was assessed by conducting a protease reaction in a 96-well plates at room temperature. Each well received 10 μL of HEPES buffer, 38 μL of the solution of compound to be assayed (final concentration 304 μmol/L), and 2 μL of the enzyme solution (final concentration 10 μg/mL) for a total volume of 50 μL. Each compound was also incubated in the absence of the enzyme (12 μL of HEPES buffer and 38 μL of the compound).
At the indicated time (5, 10, 15, 30 and 60 minute(s)) a 10 μL aliquot was removed from each experimental reaction and pipet into 100 μL of 1% TFA solution to quench the reaction (t=0 minutes was determined using the reaction without enzyme). A portion of the quenched reaction solution was analyzed by HPLC. The time course of peptide degradation was determined by integrating the area of each peak in a series of HPLC traces. Another portion of the quenched reaction was analyzed by LC-MS for identification of each peptide fragment.

[2] = target: T1, mouse GLP-1 receptor (Mus musculus, UniProt O35659); assay: GLP-1 functional assay: agonist activity by cAMP production (HTRF) in βTC6 cells; type: cell-based
T1 construct: mouse GLP-1 receptor endogenously expressed in βTC6 cells; endogenous in cells; host or cells: βTC6 cells
T1 sequence (O35659 22-463): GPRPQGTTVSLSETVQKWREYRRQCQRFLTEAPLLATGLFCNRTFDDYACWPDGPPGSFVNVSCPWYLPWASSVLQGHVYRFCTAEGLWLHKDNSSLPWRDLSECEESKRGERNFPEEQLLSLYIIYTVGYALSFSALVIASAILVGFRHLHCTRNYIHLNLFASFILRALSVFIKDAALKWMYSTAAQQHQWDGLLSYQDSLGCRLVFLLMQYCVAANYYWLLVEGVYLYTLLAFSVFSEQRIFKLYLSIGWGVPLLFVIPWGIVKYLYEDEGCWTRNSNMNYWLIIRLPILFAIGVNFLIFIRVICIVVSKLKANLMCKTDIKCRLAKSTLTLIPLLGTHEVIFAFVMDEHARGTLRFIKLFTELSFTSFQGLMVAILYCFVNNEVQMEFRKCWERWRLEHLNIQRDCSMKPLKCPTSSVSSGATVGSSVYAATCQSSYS
Protocol: For stimulated control measurement, separate assay wells contain 10 nM GLP-1(7-37) were utilized.
Following incubation, the cells were lysed and the fluorescence acceptor (D2-labeled cAMP) and fluorescence donor (anti-cAMP antibody labeled with europium cryptate) were added. […] The results are expressed as a percent of the control response to 10 nM GLP-1(7-37). The standard reference agonist is GLP-1(7-37), which was tested in each experiment at several concentrations to generate a concentration-response curve from which its EC50 value was calculated.
HTRF (Homogeneous Time-Resolved Fluorescence) principle. The HTRF technology is based on time resolved fluorescence energy transfer (TR-FRET), which occurs between long-lived fluorophore Europium or Terbium Cryptates, and EuK or Tb respectively, as a donor and the allophycocyanin XL665, d2 or Red as acceptor. Many compounds and proteins present in biological fluids or serum are naturally fluorescent, and the use of conventional, prompt fluorescence leads to serious limitations in assay sensitivity. The use of long-lived fluorophore combined with time-resolved detection (a delay between excitation and emission detection) minimizes prompt fluorescence interference.

[3] = target: T2, Carboxypeptidase A (EC 3.4.17.1) (Bos taurus, UniProt P00730); assay: Enzymatic degradation by carboxypeptidase A; type: in vitro ADME, bovine; details: same results = more stable than the native peptides
T2 construct: from bovine pancreas (Fluka), milky suspension; purchased Fluka; host or cells: bovine pancreas
T2 sequence (P00730 111-419): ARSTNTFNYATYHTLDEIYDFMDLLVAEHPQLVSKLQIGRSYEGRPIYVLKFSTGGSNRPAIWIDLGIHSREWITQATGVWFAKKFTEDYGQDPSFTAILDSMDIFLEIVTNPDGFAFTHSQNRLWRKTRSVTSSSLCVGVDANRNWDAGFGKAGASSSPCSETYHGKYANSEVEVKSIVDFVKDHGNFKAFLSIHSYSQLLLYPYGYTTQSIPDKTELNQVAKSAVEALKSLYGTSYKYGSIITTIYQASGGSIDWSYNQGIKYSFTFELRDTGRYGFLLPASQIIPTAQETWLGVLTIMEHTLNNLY
Protocol: Enzymatic Degradation—Carboxypeptidase A. Carboxypeptidase A (EC 3.4.17.1) from bovine pancreas (Fluka), milky suspension, stock solution in PBS buffer (pH 7.5, 0.01 M). For each degradation experiment, stock solutions of the peptidic substrate and the enzyme were made using phosphate-buffered saline (PBS) buffer solution. The enzyme concentrations of the stock solutions were selected such that the standard substrates were totally degraded after a maximum of 15 min (ratio 2[enzyme]:100[substrate]). PBS buffer solution (10 mM sodium phosphate, 0.14 M NaCl) was prepared as follows: Solution A (4.75 mL of 0.2 M NaH2PO4.H2O), solution B (20.25 mL of 0.2 M Na2HPO4.H2O), NaCl (4.5 g) and H2O (25 mL) were stirred for 15 min at room temperature and diluted tenfold with H2O. The pH was adjusted either with NaOH (1 M) or with HCl (1 M) prior to use. A solution of the substrate in PBS buffer (pH 7.5, 0.01 M) and a solution of the required amount of enzyme, were mixed and incubated at 25° C. for 4 hours. Degradation was stopped with concentrated AcOH, and buffer solution was added so that the total volume reached 150 μL.
The resulting mixture was analyzed by reversed-phase HPLC. A mixture of CH3CN/H2O (0.1% TFA) was used as eluent. Gradients were 10% CH3CN to 100% CH3CN in 10 minutes. The flow rate, for all separations, was 1 mL·min^−1.

CC[C@H](C)[C@H](NC(=O)[C@H](Cc1ccccc1)NC(=O)[C@H](CCC(=O)O)NC(=O)[C@H](CCCCN)NC(=O)[C@H](C)NC(=O)[C@H](C)NC(=O)[C@H](CCC(N)=O)NC(=O)CNC(=O)[C@H](CCC(=O)O)NC(=O)[C@H](CC(C)C)NC(=O)[C@H](Cc1ccc(O)cc1)NC(=O)[C@H](CO)NC(=O)[C@H](CO)NC(=O)[C@@H](NC(=O)[C@H](CC(=O)O)NC(=O)[C@H](CO)NC(=O)[C@@H](NC(=O)[C@H](Cc1ccccc1)NC(=O)[C@@H](NC(=O)CNC(=O)[C@H](CCC(=O)O)NC(=O)[C@H](C)NC(=O)[C@@H](N)Cc1c[nH]cn1)[C@@H](C)O)[C@@H](C)O)C(C)C)C(=O)N[C@@H](C)C(=O)N[C@@H](Cc1c[nH]c2ccccc12)C(=O)N[C@@H](CC(C)C)C(=O)N[C@H](CNC(=O)N[C@@H](CCCCN)C(=O)NCC(=O)N[C@@H](CCCNC(=N)N)C(=O)NCC(=O)O)C(C)C [Compound 8]
half-life in the chymotrypsin degradation test compared to native peptide [1]: longer half-life | EC50 [2]: 0.2 nM

CC[C@H](C)[C@H](NC(=O)[C@H](Cc1ccccc1)NC(=O)[C@H](CCC(=O)O)NC(=O)[C@H](CCCCN)NC(=O)[C@H](C)NC(=O)[C@H](C)NC(=O)[C@H](CCC(N)=O)NC(=O)CNC(=O)[C@H](CCC(=O)O)NC(=O)NC[C@H](Cc1ccc(O)cc1)NC(=O)[C@H](Cc1ccc(O)cc1)NC(=O)[C@H](CO)NC(=O)[C@H](CO)NC(=O)[C@@H](NC(=O)[C@H](CC(=O)O)NC(=O)[C@H](CO)NC(=O)[C@@H](NC(=O)[C@H](Cc1ccccc1)NC(=O)[C@@H](NC(=O)CNC(=O)[C@H](CCC(=O)O)NC(=O)[C@H](C)NC(=O)[C@@H](N)Cc1c[nH]cn1)[C@@H](C)O)[C@@H](C)O)C(C)C)C(=O)N[C@@H](C)C(=O)N[C@@H](Cc1c[nH]c2ccccc12)C(=O)N[C@@H](CC(C)C)C(=O)N[C@H](C(=O)N[C@@H](CCCCN)C(=O)NCC(=O)N[C@@H](CCCNC(=N)N)C(=O)NCC(=O)O)C(C)C [Compound 44]
EC50 [2]: 0.048 nM

CC[C@H](C)[C@H](NC(=O)[C@H](Cc1ccccc1)NC(=O)[C@H](CCC(=O)O)NC(=O)[C@H](CCCCN)NC(=O)[C@H](C)NC(=O)[C@H](C)NC(=O)[C@H](CCC(N)=O)NC(=O)CNC(=O)[C@H](CCC(=O)O)NC(=O)[C@H](CC(C)C)NC(=O)[C@H](Cc1ccc(O)cc1)NC(=O)[C@H](CO)NC(=O)[C@H](CO)NC(=O)[C@@H](NC(=O)[C@H](CC(=O)O)NC(=O)[C@H](CO)NC(=O)[C@@H](NC(=O)[C@H](Cc1ccccc1)NC(=O)[C@@H](NC(=O)CNC(=O)[C@H](CCC(=O)O)NC(=O)[C@H](C)NC(=O)[C@@H](N)Cc1c[nH]cn1)[C@@H](C)O)[C@@H](C)O)C(C)C)C(=O)N[C@@H](C)C(=O)N[C@@H](C)CNC(=O)N[C@@H](CC(C)C)C(=O)N[C@H](C(=O)N[C@@H](CCCCN)C(=O)NCC(=O)N[C@@H](CCCNC(=N)N)C(=O)NCC(=O)O)C(C)C [Compound 3]
stability with carboxipeptidase A compared to native peptides [3]: same results | half-life in the chymotrypsin degradation test compared to native peptide [1]: longer half-life | EC50 [2]: 0.46 nM

CC[C@H](C)[C@H](NC(=O)[C@H](Cc1ccccc1)NC(=O)[C@H](CCC(=O)O)NC(=O)[C@H](CCCCN)NC(=O)[C@H](C)NC(=O)[C@H](C)NC(=O)[C@H](CCC(N)=O)NC(=O)CNC(=O)[C@H](CCC(=O)O)NC(=O)[C@H](CC(C)C)NC(=O)[C@H](Cc1ccc(O)cc1)NC(=O)[C@H](CO)NC(=O)[C@H](CO)NC(=O)[C@@H](NC(=O)[C@H](CC(=O)O)NC(=O)[C@H](CO)NC(=O)[C@@H](NC(=O)[C@H](Cc1ccccc1)NC(=O)[C@@H](NC(=O)CNC(=O)[C@H](CCC(=O)O)NC(=O)[C@H](C)NC(=O)[C@@H](N)Cc1c[nH]cn1)[C@@H](C)O)[C@@H](C)O)C(C)C)C(=O)N[C@@H](C)C(=O)N[C@@H](Cc1c[nH]c2ccccc12)C(=O)N[C@@H](C)CNC(=O)N[C@H](C(=O)N[C@@H](CCCCN)C(=O)NCC(=O)N[C@@H](CCCNC(=N)N)C(=O)NCC(=O)O)C(C)C [Compound 5]
stability with carboxipeptidase A compared to native peptides [3]: same results | half-life in the chymotrypsin degradation test compared to native peptide [1]: longer half-life | EC50 [2]: 0.42 nM

CC[C@H](C)[C@H](NC(=O)[C@H](Cc1ccccc1)NC(=O)[C@H](CCC(=O)O)NC(=O)[C@H](CCCCN)NC(=O)[C@H](C)NC(=O)NC[C@H](C)NC(=O)[C@H](CCC(N)=O)NC(=O)CNC(=O)[C@H](CCC(=O)O)NC(=O)[C@H](CC(C)C)NC(=O)[C@H](Cc1ccc(O)cc1)NC(=O)[C@H](CO)NC(=O)[C@H](CO)NC(=O)[C@@H](NC(=O)[C@H](CC(=O)O)NC(=O)[C@H](CO)NC(=O)[C@@H](NC(=O)[C@H](Cc1ccccc1)NC(=O)[C@@H](NC(=O)CNC(=O)[C@H](CCC(=O)O)NC(=O)[C@H](C)NC(=O)[C@@H](N)Cc1c[nH]cn1)[C@@H](C)O)[C@@H](C)O)C(C)C)C(=O)N[C@@H](C)C(=O)N[C@@H](Cc1c[nH]c2ccccc12)C(=O)N[C@@H](CC(C)C)C(=O)N[C@H](C(=O)N[C@@H](CCCCN)C(=O)NCC(=O)N[C@@H](CCCNC(=N)N)C(=O)NCC(=O)O)C(C)C [Compound 45]
EC50 [2]: 0.036 nM

CC[C@H](C)[C@H](NC(=O)[C@H](Cc1ccccc1)NC(=O)[C@H](CCC(=O)O)NC(=O)[C@H](CCCCN)NC(=O)[C@H](C)NC(=O)[C@H](C)NC(=O)[C@H](CCC(N)=O)NC(=O)CNC(=O)[C@H](CCC(=O)O)NC(=O)[C@H](CC(C)C)NC(=O)[C@H](Cc1ccc(O)cc1)NC(=O)[C@H](CO)NC(=O)[C@H](CO)NC(=O)[C@@H](NC(=O)[C@H](CC(=O)O)NC(=O)[C@H](CO)NC(=O)[C@@H](NC(=O)[C@H](Cc1ccccc1)NC(=O)[C@@H](NC(=O)CNC(=O)[C@H](CCC(=O)O)NC(=O)[C@H](C)NC(=O)NC[C@@H](N)Cc1c[nH]cn1)[C@@H](C)O)[C@@H](C)O)C(C)C)C(=O)N[C@@H](C)C(=O)N[C@@H](Cc1c[nH]c2ccccc12)C(=O)N[C@@H](CC(C)C)C(=O)N[C@H](C(=O)N[C@@H](CCCCN)C(=O)NCC(=O)N[C@@H](CCCNC(=N)N)C(=O)NCC(=O)O)C(C)C [Compound 12]
EC50 [2]: 280 nM
